The record followed here is patent US8614290B2, “Cancer imaging and treatment” (Technische Universitat Munchen, priority 2007, dated 2013).

Chains of the proteins cited; added tags and fusions are not shown.
UniProt P61073, whole entry: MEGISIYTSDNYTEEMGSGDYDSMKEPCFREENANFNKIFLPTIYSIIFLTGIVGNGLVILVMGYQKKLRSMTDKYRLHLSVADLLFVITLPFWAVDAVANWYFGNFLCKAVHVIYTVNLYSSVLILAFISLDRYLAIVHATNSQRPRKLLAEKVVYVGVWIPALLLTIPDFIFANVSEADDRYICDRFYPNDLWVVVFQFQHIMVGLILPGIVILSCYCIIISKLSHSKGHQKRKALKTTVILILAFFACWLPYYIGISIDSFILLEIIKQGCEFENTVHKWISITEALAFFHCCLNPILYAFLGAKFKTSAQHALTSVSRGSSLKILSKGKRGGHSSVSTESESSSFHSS

By IC50 is commonly meant the point on the concentration scale where inhibition reaches its midpoint.

The target of test [1] is T1, CXCR4 (Homo sapiens, UniProt P61073). The test can be described thus: Competitive receptor binding assay on Jurkat cells with 125I-CPCR4 as tracer. Details: Jurkat cells that endogenously express the CXCR4 receptor; endogenous in cells; host or cells: Jurkat cells. Here is the method:
For receptor binding assays cells were resuspended in PBS/0.2% BSA. A total of 200 μl of the suspension containing 400,000 Jurkat cells were incubated with 25 μl of the tracer solution (containing 3.1 kBq, approx. 0.1 nM) and 25 μl of the diluent or the competitor at different concentrations. […] After shaking for 2 h at room temperature, the incubation was terminated by centrifugation at 1300 rpm for 5 min. Cell pellets were washed once with cold PBS followed by a second centrifugation step. Cell bound radioactivity was determined by using a gamma counter. Experiments were repeated 2-3 times in triplicates. IC50 values of the compounds were calculated by nonlinear regression using GraphPad Prism (GraphPad Prism 4.0 Software, Inc., San Diego, Calif., USA). Each data point is the average of three determinations.

The target in test [2] is T1, CXCR4. The test can be described thus: ^125I-CPCR4 | CMS5/CXCR4. Set-up: Jurkat cells that endogenously express the CXCR4 receptor; endogenous in cells; host or cells: Jurkat cells.

The compound `N=C(N)NCCC[C@@H]1NC(=O)[C@H](CCCNC(=O)CCCC(=O)NCCC[C@@H]2NC(=O)[C@@H](Cc3ccc(O)cc3)NC(=O)CNC(=O)[C@H](Cc3ccc4ccccc4c3)NC(=O)[C@H](CCCNC(=N)N)NC2=O)NC(=O)[C@@H](Cc2ccc(O)cc2)NC(=O)CNC(=O)[C@H](Cc2ccc3ccccc3c2)NC1=O` [Code A21, glutaric acid-(cyclo[D-Tyr-Orn-Arg-2-Nal-Gly])2] came in with an IC50 at CXCR4 [1] of 4.3 ± 0.3 nM.
As to `N=C(N)NCCC[C@@H]1NC(=O)[C@H](CCCNC(=N)N)NC(=O)[C@@H](Cc2ccc(O)cc2)NC(=O)CNC(=O)[C@H](Cc2ccc3ccccc3c2)NC1=O` [CPCR4, cyclo[D-Tyr-Arg-Arg-Nal-Gly]], at CXCR4 [2], the IC50 came to 6.8 nM.
For the compound `N=C(N)NCCC[C@@H]1NC(=O)[C@H](CCCNC(N)=O)NC(=O)[C@@H](Cc2ccc(O)cc2)NC(=O)CNC(=O)[C@H](Cc2ccc3ccccc3c2)NC1=O` [OD27, cyc[Nal-Gly-D-Tyr-Cit-Arg]], on CXCR4 [1] (Table 4, Orn-Nδ and/or Orn-Nα-modified pentapeptides, read-out: IC50), the 50% inhibitory concentration (IC50) was 35 ± 7 nM.
